Literature values, collected in patent US11022605B2 (priority 2016, dated 2021).

Test system: lung compartment
Conditions: CCA; cited from earlier work

Substance: naphthaquinone
- effect of reactive metabolite generated in the liver: gluthathione depletion and loss of viability in the lung compartment
